Target: EGFP-mito
Assay: cell-based or functional assay

## cR10*-SS-GBP-TMP (VHH)
  Pearson correlation coefficient of colocalization between mCherry and EGFP channels: 1 PCC
  t1/2 of induced intracellular dimerization (normalized PCC against time): 7.26 min

Reference: patent publication US20230414776A1, “Small Molecule-Nanobody Conjugate Inducers of Proximity (SNACIP) and Preparation Methods and Use thereof” (Harbin Institute of Technology, priority 2022, published 2023)
